Our source for the koff and Kd values is publication PMC11999149.

This assay deals with membrane truncated soluble E2 (sE2, residues 384-645) of the H77 isolate (hepatitis C virus, isolate H77, genotype 1a) (UniProt P27958). Description: SPR. For orientation: Surface plasmon resonance follows binding to a sensor surface in real time, without labels.

Broadly, the koff is a measure of how fast the partners let go of each other. As usually defined, the Kd is the equilibrium constant for the complex coming apart. A lower Kd goes with higher affinity.

Like-named read-outs stand apart in the source and are kept apart here.

AR3A Fab (reference) displayed a koff (Fab) of 0.00141 s⁻¹.
AR3A full-length IgG (reference) yielded a Kd of 0.841 nM and a koff of 0.000291 s⁻¹.
